Ab-95 light chain CDR variants: yeast mating affinities

Reference: Engelhart et al. 2022, doi:10.1038/s41597-022-01779-4. File: FLAb, binding data.

Antigen: PDVDLGDISGINAS, a 14-residue peptide of the SARS-CoV-2 spike HR2 region.

Parent: Ab-95, a human scFv built as VH, the linker GGGGSGGGGSGGGGS, VL. Only the CDRs of the light chain vary.
VH: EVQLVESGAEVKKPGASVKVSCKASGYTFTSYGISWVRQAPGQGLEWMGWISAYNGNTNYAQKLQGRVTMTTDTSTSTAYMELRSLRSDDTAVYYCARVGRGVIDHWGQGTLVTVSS
VL: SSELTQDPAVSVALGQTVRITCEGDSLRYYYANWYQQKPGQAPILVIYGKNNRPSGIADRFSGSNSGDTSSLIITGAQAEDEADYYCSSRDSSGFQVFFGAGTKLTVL

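Phage display of a naive human antibody library on the peptide gave the parent. The library (AAYL52) carries one to three amino acid substitutions per variant, with no insertions or deletions. AlphaSeq pools MATa yeast showing the antibodies with MATalpha yeast showing the peptide. Binding brings cells together so that they mate, and sequencing counts the barcode pairs among the diploids. Each replicate has its own calibration line, from reference interactions of the BCL2 family. Mating was done three times.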

Substitutions are numbered in sequence along the VL above, starting at 1 (not Kabat).
Scale: log10 of Kd in nM, estimated from mating counts; low values are strong binders.
"n.d." means that the variant was in the library but no mating with the target was seen in that replicate; the authors take this as a sign of poor binding, and no number exists.
For reference, the parent read 2.31 as the reference entry and 2.25 as a member of this library.
Nonspecific signal, from three strains lacking the peptide, appeared in 28% of pairings of library AAYL52, centred on 3.91 (5% of these signals below 2.90); values are not corrected for it. The control count says in how many pairings with the empty strains this scFv gave a signal, with their mean in brackets.

changes	log10 Kd, replicates	empty controls
R28S/S55D/S88L	n.d. / n.d. / n.d.	3 of 9 (4.36)
D25W/Y31E/K50N	2.43 / 2.41 / 1.51	1 of 9 (4.17)
S92H/F95R/Q96A	2.94 / 3.22 / 2.44	3 of 9 (4.34)
E23H/Y31F/N33P	n.d. / n.d. / n.d.	2 of 9 (4.35)
R28W/S93D	4.20 / 3.67 / 3.27	6 of 9 (4.46)
Y31V/N52P/S92Y	3.77 / 4.68 / n.d.	5 of 9 (4.21)
Y29P/R90G/Q96V	4.96 / 4.97 / n.d.	3 of 9 (4.48)
G49D/R53M/D91L	n.d. / n.d. / n.d.	1 of 9 (3.24)
R28F/R53Q/S55F	n.d. / 5.07 / n.d.	2 of 9 (4.68)
N52H/R53E/F98V	4.70 / n.d. / n.d.	5 of 9 (4.22)
G24E/R90N/V97M	n.d. / 4.16 / n.d.	2 of 9 (3.71)
S26W/K50W/F98A	2.73 / 2.91 / 2.44	2 of 9 (3.87)
G24L/D91M/Q96H	4.93 / 3.63 / 4.33	4 of 9 (3.37)
Y29I/N33I/F98S	n.d. / n.d. / n.d.	1 of 9 (3.26)
S93E/F95T/Q96S	3.04 / 2.63 / 3.19	3 of 9 (3.65)
S55I/Q96H/V97C	2.70 / 3.14 / 4.31	2 of 9 (4.73)
Y31D/R53A/F98H	2.64 / 2.54 / 2.70	0 of 9
A32F/R53A/P54Q	4.79 / 3.52 / n.d.	1 of 9 (4.41)
S55N/F95N/Q96Y	1.71 / 2.01 / 1.20	5 of 9 (3.80)
E23H/L27R/F98G	2.26 / 2.17 / 1.82	0 of 9
N52M/S93R/F95Y	2.59 / 2.64 / 1.84	5 of 9 (3.70)
S26Y/N51H/G94F	4.10 / 4.12 / n.d.	3 of 9 (3.87)
Y29M/P54V/G94E	n.d. / 3.38 / n.d.	2 of 9 (4.31)
Y31H/N33M/K50C	5.45 / 4.30 / 4.28	5 of 9 (4.23)
S89P/Q96K/V97P	4.00 / n.d. / 4.35	0 of 9
S89A/G94V/F98I	3.27 / 2.59 / 2.76	1 of 9 (4.03)
D25N/S55C/S92P	n.d. / n.d. / n.d.	1 of 9 (3.00)
S26M/Q96P/V97S	3.70 / n.d. / n.d.	1 of 9 (3.36)
G24N/Y31A/G94L	5.29 / n.d. / 2.74	5 of 9 (4.19)
R28E/K50G/S93F	2.78 / 2.78 / 2.79	2 of 9 (3.52)
Y30C/R53F/P54K	n.d. / n.d. / n.d.	0 of 9
D25E/N33I/R53N	n.d. / 3.51 / n.d.	2 of 9 (3.08)
K50W/N52P/S89A	4.06 / 4.85 / n.d.	2 of 9 (3.35)
Y30T/S88K/S92H	n.d. / n.d. / n.d.	2 of 9 (2.65)

The opening 5 entries, copied out:

| changes | log10 Kd, replicates | empty controls |
|---|---|---|
| R28S/S55D/S88L | n.d. / n.d. / n.d. | 3 of 9 (4.36) |
| D25W/Y31E/K50N | 2.43 / 2.41 / 1.51 | 1 of 9 (4.17) |
| S92H/F95R/Q96A | 2.94 / 3.22 / 2.44 | 3 of 9 (4.34) |
| E23H/Y31F/N33P | n.d. / n.d. / n.d. | 2 of 9 (4.35) |
| R28W/S93D | 4.20 / 3.67 / 3.27 | 6 of 9 (4.46) |